Patent US20020192703A1, “Immunoassay reagents and methods for determination of LSD and LSD metabolites” (priority 1995, published 2002)

What was measured:
[1] = tested on: Monoclonal antibody 19A7 specific for LSD; test: Immunoaffinity extraction from urine with antibody 19A7 on Sepharose 4B; details: immunoaffinity extract of urine analysed by HPLC/MS/MS
[2] = tested on: LSD specific monoclonal antibody raised against the immunogen of Example 4; test: CEDIA assay for LSD, dose response, antibody raised against immunogen of Example 4; details: for Rate: absorbance rate at 570 nm
[3] = tested on: LSD specific monoclonal antibody raised against the immunogen of Example 6; test: CEDIA assay for LSD, dose response, antibody raised against immunogen of Example 6
[4] = antibodies raised against conjugate of Example 4 or Example 6

SMILES | recognition by the 19A7 antibody [1] | Rate ([2]; LSD dose 0.3 ng/ml) [mAU/min] | Rate ([2]; LSD dose 0.5 ng/ml) [mAU/min] | Rate ([2]; LSD dose 0.7 ng/ml) [mAU/min] | Rate ([2]; LSD dose 2.0 ng/ml) [mAU/min] | Rate ([2]; LSD dose 4.0 ng/ml) [mAU/min] | Rate ([2]; LSD dose 100 ng/ml) [mAU/min] | LSD dose at which antibody binding of LSD-enzyme donor conjugates is detectably inhibitable [2, 4] [ng/mL] | LSD dose at which binding is inhibitable at about the 50% maximum level [2, 4] | affinity of the antibodies for LSD ([2]; calculated from effective concentrations of assay components, antibodies of Examples 9 and 10) | Rate ([3]; LSD dose 0.3 ng/ml) [mAU/min] | Rate ([3]; LSD dose 0.5 ng/ml) [mAU/min] | Rate ([3]; LSD dose 0.8 ng/ml) [mAU/min] | Rate ([3]; LSD dose 1.6 ng/ml) [mAU/min] | Rate ([3]; LSD dose 4.0 ng/ml) [mAU/min]
CCN(CC)C(=O)[C@@H]1C=C2c3cc(O[C@@H]4O[C@H](C(=O)O)[C@@H](O)[C@H](O)[C@H]4O)cc4[nH]cc(c34)C[C@H]2N(C)C1 [13-hydroxy LSD glucuronide] | recognizes |  |  |  |  |  |  |  |  |  |  |  |  |  | 
CCN(CC)C(=O)[C@@H]1C=C2c3ccc(O[C@@H]4O[C@H](C(=O)O)[C@@H](O)[C@H](O)[C@H]4O)c4[nH]cc(c34)C[C@H]2N(C)C1 [14-hydroxy LSD glucuronide] | recognizes |  |  |  |  |  |  |  |  |  |  |  |  |  | 
CCN(CC)C(=O)[C@@H]1C=C2c3cccc4[nH]cc(c34)C[C@H]2N(C)C1 [LSD, lysergic acid diethylamide] |  | 132.2 | 145.0 | 155.3 | 207.0 | 224.8 | 228.7 | 0.3 | about 1 ng/mL | at least 10^10 M^−1 | 67.6 | 69.9 | 72.6 | 80.8 | 107.4
